For orientation: pIC50 means the IC50 on a negative log10 scale, so that one unit is a factor of ten. Higher therefore signals a small IC50.

Chains of the proteins cited; added tags and fusions are not shown. Lines headed by an entry give the natural chain unless they say otherwise; changes in a name come on top.
UniProt P47712: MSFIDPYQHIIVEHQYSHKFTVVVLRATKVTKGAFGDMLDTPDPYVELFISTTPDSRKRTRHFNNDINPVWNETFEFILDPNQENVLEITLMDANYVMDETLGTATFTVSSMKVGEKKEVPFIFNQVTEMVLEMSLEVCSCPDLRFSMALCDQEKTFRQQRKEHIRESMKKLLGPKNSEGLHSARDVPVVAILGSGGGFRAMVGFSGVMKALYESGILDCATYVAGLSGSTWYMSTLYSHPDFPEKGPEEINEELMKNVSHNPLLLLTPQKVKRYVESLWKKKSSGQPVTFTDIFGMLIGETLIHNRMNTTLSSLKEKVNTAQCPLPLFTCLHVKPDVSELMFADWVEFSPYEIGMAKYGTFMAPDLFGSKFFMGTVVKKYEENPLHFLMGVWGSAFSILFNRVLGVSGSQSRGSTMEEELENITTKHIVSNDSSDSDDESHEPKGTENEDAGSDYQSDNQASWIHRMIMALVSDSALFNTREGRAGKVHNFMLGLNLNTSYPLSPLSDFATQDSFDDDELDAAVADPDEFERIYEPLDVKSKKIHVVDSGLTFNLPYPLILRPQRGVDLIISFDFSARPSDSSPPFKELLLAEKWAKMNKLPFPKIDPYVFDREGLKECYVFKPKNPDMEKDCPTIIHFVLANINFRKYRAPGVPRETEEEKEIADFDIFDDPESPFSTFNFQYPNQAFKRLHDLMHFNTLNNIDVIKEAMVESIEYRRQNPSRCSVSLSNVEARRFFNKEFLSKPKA

Data on one molecule can be found in PMC7919193, “Berberine Suppresses Colonic Inflammation in Dextran Sulfate Sodium–Induced Murine Colitis Through Inhibition of Cytosolic Phospholipase A2 Activity” (Frontiers in Pharmacology, 2020).

pIC50: −log10 of the molar value.

This assay addresses PLA2G4A (cytosolic phospholipase A2α, cPLA2α) (Homo sapiens, UniProt P47712). As to the kind of experiment: biochemical.

Consider `COc1ccc2cc3[n+](cc2c1OC)CCc1cc2c(cc1-3)OCO2` [berberine], for which the pIC50 is 4.82.
